Antibody variant affinities, Ab-91 heavy chain, assay 2

The target is the same throughout: PDVDLGDISGINAS, from the HR2 region of SARS-CoV-2 spike.

Each scFv is VL, a (GGGGS)3 linker, VH, as in the parent Ab-91, and differs from it in the CDRs of the heavy chain only.
VL: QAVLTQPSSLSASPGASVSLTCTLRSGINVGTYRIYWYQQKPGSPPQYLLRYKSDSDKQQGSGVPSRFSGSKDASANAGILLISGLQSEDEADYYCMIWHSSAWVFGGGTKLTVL
VH: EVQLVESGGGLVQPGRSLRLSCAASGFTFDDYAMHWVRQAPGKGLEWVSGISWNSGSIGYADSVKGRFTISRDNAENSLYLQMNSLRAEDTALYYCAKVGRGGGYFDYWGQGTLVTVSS

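The starting antibody came from a phage panning campaign against this peptide. Library AAYL51 holds single substitutions and randomly drawn double and triple substitutions in the CDRs. In AlphaSeq, yeast of one mating type display the scFv and yeast of the other type display the target. Binding brings cells together so that they mate, and sequencing counts the barcode pairs among the diploids. A regression on co-assayed BCL2-family reference pairs converts the normalised counts of each replicate to an apparent Kd. Each pool was mated in three replicate cultures.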

Variants are written as CDR1, CDR2 and CDR3 of the heavy chain (limits as in the source). Parent: GFTFDDYAMH, GISWNSGSIGYADSVK, VGRGGGYFDY. Every variant below is changed at G56 of the VH (sequential numbering). The read-out is the apparent dissociation constant on a log10 scale (nM): the lower, the stronger. A mean of the replicates is given; it leaves out those without a signal. Where no diploid with the target was found in any replicate, the entry reads "no signal": below detection, most likely a poor binder, though not proof of it.

For GFTFDDYAMH | GISWNSCSIGYADSVK | VMQGGGYFDY, the assay gave 5.28 (2 of 3 replicates; controls 6 of 9). The variant GSTFDDYAMH | GISWNSTSIGYADSVK | VGRGGGWFDY showed 5.06 (2 of 3 replicates; controls 1 of 9). With GFTFDDYAMH | GISWNSFSIGYADSPK | VGRGGGYFDY the result was no signal (0 of 3 replicates; controls 2 of 9). The variant GFTFDDCAMH | GISWTSHSIGYADSVK | VGRGGGYFDY gave no signal (0 of 3 replicates; controls 1 of 9). The variant NFTFDDYAMH | GISWNSFSIGYADSVK | VGRGGGYFDM gave no signal (0 of 3 replicates; controls 0 of 9). With GFTFDDYAMH | GISWYSKSIGYADSVK | VGRGGGYHDY the result was no signal (0 of 3 replicates; controls 1 of 9). The variant GFTFDDYAMH | KISWNSIWIGYADSVK | VGRGGGYFDY showed 4.65 (2 of 3 replicates; controls 2 of 9). For GFTFDDYAMH | GISWNSSSIGYDDSVK | VCRGGGYFDY, the assay gave 3.66 (3 of 3 replicates; controls 5 of 9). The variant TFTFDDYAMH | GISWNSNSIGYADSVK | VGRGGGYFDY gave 3.35 (1 of 3 replicates; controls 0 of 9).

With GFTFDDYAMH | GISWNSASIGYAVSVP | VGRGGGYFDY the result was 3.95 (2 of 3 replicates; controls 1 of 9). The variant GFTFDDYAMH | TISWNSPSIGYADSVK | VGRGGGYFDY showed 4.68 (1 of 3 replicates; controls 4 of 9). The variant GFTFDDYAMH | GISWNSSSIGPADSVK | VGRKGGYFDY showed 4.52 (1 of 3 replicates; controls 2 of 9). The variant GFTFDDYAMH | GISWNSLSINYADSVK | VERGGGYFDY gave 3.35 (1 of 3 replicates; controls 1 of 9). The variant GFTFDDYAMH | GISWNSASIGYFDSVK | VGAGGGYFDY showed no signal (0 of 3 replicates; controls 0 of 9). The variant GFTFDDYKMH | LISWNSNSIGYADSVK | VGRGGGYFDY showed no signal (0 of 3 replicates; controls 0 of 9). The variant GFTDDDYAMH | GISWNSISIGYADSVK | VGRGGGYGDY showed no signal (0 of 3 replicates; controls 0 of 9). With GFTFDDYAIH | GISWNSNSIGYADSVK | VGRGGGYADY the result was no signal (0 of 3 replicates; controls 0 of 9). For GFWFDDYAMH | GIMWNSCSIGYADSVK | VGRGGGYFDY, the assay gave 4.37 (2 of 3 replicates; controls 3 of 9).

The variant GFTFCDYAMH | GPSWNSYSIGYADSVK | VGRGGGYFDY gave no signal (0 of 3 replicates; controls 0 of 9). The variant GFTFDDYAMH | GISWNSSSIGYASSVK | VGRGGGYFDK gave 1.29 (1 of 3 replicates; controls 0 of 9). The variant GFTFDDYAMH | GISWNSSSIGYADSVK | VGRYGGWFDY showed 3.69 (1 of 3 replicates; controls 5 of 9). The variant GFTFDDYAMH | GISWNSWSIGYADSVK | VGRGGGYFDY gave 4.20 (2 of 3 replicates; controls 3 of 9). With GFTFDDYAMH | GISWMSPPIGYADSVK | VGRGGGYFDY the result was 3.93 (2 of 3 replicates; controls 3 of 9). For GFTFDDYAMH | DISWNSHSIGYADSLK | VGRGGGYFDY, the assay gave no signal (0 of 3 replicates; controls 0 of 9). With GFTFDDYAMH | GESWNSASIGYARSVK | VGRGGGYFDY the result was 4.31 (2 of 3 replicates; controls 2 of 9). The variant GFTFIDYAMH | GISWNSNSIGYADSVK | WGRGGGYFDY showed no signal (0 of 3 replicates; controls 1 of 9). The variant GFTFDLYAMH | GISWNSMSIYYADSVK | VGRGGGYFDY gave no signal (0 of 3 replicates; controls 0 of 9).

The variant GNTFDDYAMH | GISWNHCSIGYADSVK | VGRGGGYFDY showed 3.09 (1 of 3 replicates; controls 0 of 9). With GFTFDDYAMH | GISWNSYSDGYDDSVK | VGRGGGYFDY the result was 4.94 (1 of 3 replicates; controls 0 of 9). The variant GFTFDDYAMH | GISWNSTSIGYADSVK | VGRGGGDADY gave 3.07 (3 of 3 replicates; controls 1 of 9).

5 of these entries, quoted again:

{"CDR-H1": "GFTFIDYAMH", "CDR-H2": "GISWNSNSIGYADSVK", "CDR-H3": "WGRGGGYFDY", "log10 Kd (nM), mean": "no signal", "detected": "0 of 3", "empty controls": "1 of 9"}
{"CDR-H1": "GFTFDDYAMH", "CDR-H2": "DISWNSHSIGYADSLK", "CDR-H3": "VGRGGGYFDY", "log10 Kd (nM), mean": "no signal", "detected": "0 of 3", "empty controls": "0 of 9"}
{"CDR-H1": "GFTFDDYAMH", "CDR-H2": "GISWNSCSIGYADSVK", "CDR-H3": "VMQGGGYFDY", "log10 Kd (nM), mean": "5.28", "detected": "2 of 3", "empty controls": "6 of 9"}
{"CDR-H1": "GFTFDDYAIH", "CDR-H2": "GISWNSNSIGYADSVK", "CDR-H3": "VGRGGGYADY", "log10 Kd (nM), mean": "no signal", "detected": "0 of 3", "empty controls": "0 of 9"}
{"CDR-H1": "TFTFDDYAMH", "CDR-H2": "GISWNSNSIGYADSVK", "CDR-H3": "VGRGGGYFDY", "log10 Kd (nM), mean": "3.35", "detected": "1 of 3", "empty controls": "0 of 9"}

Three control strains display no target. For library AAYL51, 21% of the pairings with them gave a signal, with a median of 4.54 and one signal in twenty below 3.26, so weak values seen in few replicates may be background. Also given: how often the same scFv was detected with the empty control strains. Parent in this assay: reference entry 1.86, copy in this library 0.88.

Data: MIT Lincoln Laboratory AlphaSeq set, Engelhart et al. 2022, doi:10.1038/s41597-022-01779-4, as distributed in FLAb.